Here are results for one substance from publication PMC9536601.

pKd: −log10 of the molar value.

This assay concerns the target hexon of wild-type human adenovirus type 1 (on virions) (human adenovirus 1). Nature of the assay: SPR; Biacore T200; about 300 to 5,000 RU of Ad virions immobilised on a CM5 chip, coagulation factors flowed over at four concentrations, 50 uL/min; running buffer 10 mM HEPES, 150 mM NaCl, 1 mM CaCl2, 0.5 mM MgCl2, 0.1% BSA, 0.05% polysorbate 20, pH 7.4; regeneration with 3 mM EDTA; global fit to a 1:1 kinetic interaction model, double referencing. Background: SPR reads the build-up and loss of mass on a sensor chip optically.

One may read the pKd as −log10 of the Kd, conventionally taken in molar units. Read a low pKd as a large Kd. As a reminder, the koff is a measure of how fast the partners let go of each other. Lower therefore signals a long-lived complex. The term kon denotes the second-order rate constant of association. A high value points to fast association. In turn, “human prothrombin (coagulation factor II) (from UniProt P00734 44-622) (natural protein)” gave a pKd of 8.30, a koff of 0.000511 s⁻¹ and an association rate constant (kon) of 102000 M⁻¹ s⁻¹.
